Test results reported in patent US20020061839A1, “Serine peptidase modulators” (priority 1998, published 2002).

Amino acid sequences for entries named in this document (tags omitted).
UniProt P27487, whole entry: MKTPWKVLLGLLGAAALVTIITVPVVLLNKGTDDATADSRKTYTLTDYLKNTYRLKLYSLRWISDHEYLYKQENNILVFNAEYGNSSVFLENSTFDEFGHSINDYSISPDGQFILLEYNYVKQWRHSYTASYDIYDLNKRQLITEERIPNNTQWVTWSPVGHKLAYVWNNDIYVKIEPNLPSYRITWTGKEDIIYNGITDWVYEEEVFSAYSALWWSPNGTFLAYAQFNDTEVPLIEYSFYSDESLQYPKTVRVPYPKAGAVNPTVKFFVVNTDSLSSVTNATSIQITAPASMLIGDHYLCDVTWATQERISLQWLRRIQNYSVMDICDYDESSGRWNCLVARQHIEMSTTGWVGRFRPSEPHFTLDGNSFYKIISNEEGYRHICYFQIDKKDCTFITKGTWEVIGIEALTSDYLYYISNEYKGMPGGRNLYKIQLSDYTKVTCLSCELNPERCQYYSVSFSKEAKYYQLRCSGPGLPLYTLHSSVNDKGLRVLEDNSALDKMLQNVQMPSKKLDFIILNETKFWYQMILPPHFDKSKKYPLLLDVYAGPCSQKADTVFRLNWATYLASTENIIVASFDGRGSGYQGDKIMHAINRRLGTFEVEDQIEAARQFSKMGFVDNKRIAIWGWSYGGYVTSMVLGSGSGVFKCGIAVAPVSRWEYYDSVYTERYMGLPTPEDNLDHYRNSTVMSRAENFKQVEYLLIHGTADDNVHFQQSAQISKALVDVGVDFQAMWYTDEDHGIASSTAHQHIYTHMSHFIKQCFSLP

These compounds were tested against DPP IV (Homo sapiens, UniProt P27487). Conditions: pH 8.3, 15 min.

Going from `CC(=O)Nc1cccc(OP(=O)(Oc2cccc(NC(C)=O)c2)C2CCCN2C(=O)[C@@H]2CCCN2)c1.Cl` (mixture of isomers) [11d] to `Cl.Cl.Cl.NCC(=O)Nc1ccc(OP(=O)(Oc2ccc(NC(=O)CN)cc2)C2CCCN2C(=O)[C@@H]2CCCN2)cc1` (mixture of isomers) [11i, Di[4-(N-glycylamino)phenyl]-1-((S)-prolyl)-pyrrolidine-2(R,S)-phosphonate trihydrochloride], the “kcalc (second order rate constant of inactivation)” value (“kcalc” below) rises from 960 M⁻¹ s⁻¹ to 1500 M⁻¹ s⁻¹ (1.6-fold).

First: CS(=O)(=O)Nc1ccc(OP(=O)(Oc2ccc(NS(C)(=O)=O)cc2)C2CCCN2C(=O)[C@@H]2CCCN2)cc1.Cl (mixture of isomers) [11f, Di(4-methylsulfonylaminophenyl) 1-((S)-prolyl)-pyrrolidine-2(R,S)-phosphonate hydrochloride]
Second: CCCNC(=O)c1ccc(OP(=O)(Oc2ccc(C(=O)NCCC)cc2)C2CCCN2C(=O)[C@@H]2CCCN2)cc1.Cl (mixture of isomers) [11p, Di[4-(n-propylaminocarbonyl)phenyl]1-((S)-prolyl)-pyrrolidine-2(R,S)-phosphonate hydrochloride]
The “kcalc” value of the first is 14-fold lower: 1900 M⁻¹ s⁻¹ for the first, 26000 M⁻¹ s⁻¹ for the second.

Compared with `Cl.O=C(CNC(=O)c1ccccc1)Nc1ccc(OP(=O)(Oc2ccc(NC(=O)CNC(=O)c3ccccc3)cc2)C2CCCN2C(=O)[C@@H]2CCCN2)cc1` (mixture of isomers) [11h, Di[4-(N-benzoylglycylamino)phenyl]-1-((S)-prolyl)pyrrolidine-2(R,S)-phosphonate hydrochloride], `COC(=O)CCNC(=O)c1ccc(OP(=O)(Oc2ccc(C(=O)NCCC(=O)OC)cc2)C2CCCN2C(=O)[C@@H]2CCCN2)cc1.Cl` (mixture of isomers) [11o, Di{4-[2-(methoxycarbonyl)ethylaminocarbonyl]phenyl}1-((S)-prolyl)-pyrrolidine-2(R,S)-phosphonate hydrochloride] is 19-fold higher in “kcalc” value: 1100 M⁻¹ s⁻¹ for the first, 21000 M⁻¹ s⁻¹ for the second.
